Article PMC4965700

The chains behind the UniProt entries cited, without tags or fusion partners. Residues count along the entry.
UniProt P39940, 421-809: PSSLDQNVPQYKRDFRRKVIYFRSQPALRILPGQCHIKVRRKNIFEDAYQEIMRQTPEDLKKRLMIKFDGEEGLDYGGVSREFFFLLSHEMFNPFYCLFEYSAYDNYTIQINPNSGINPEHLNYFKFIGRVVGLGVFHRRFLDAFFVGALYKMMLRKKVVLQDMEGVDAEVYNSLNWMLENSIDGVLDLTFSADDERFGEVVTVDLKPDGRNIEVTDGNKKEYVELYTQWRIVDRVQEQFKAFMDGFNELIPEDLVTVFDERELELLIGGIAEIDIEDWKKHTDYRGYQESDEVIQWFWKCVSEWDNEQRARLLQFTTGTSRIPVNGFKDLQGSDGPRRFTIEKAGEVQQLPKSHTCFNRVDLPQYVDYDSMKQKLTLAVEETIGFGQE

Biological target: Rsp5 HECT (S. cerevisiae) (UniProt P39940)

UbFluor (from UniProt P0CG48 1-76) was tested, and the apparent KM of the multi-turnover (MT) consumption of UbFluor by Rsp5 HECT, Michaelis–Menten fit of initial velocities by fluorescence polarization was 792 µM.
